PKM2 activator – qHTS Assay for Activators of Human Muscle isoform 2 Pyruvate Kinase; Potency, µM (series often up to 57.5 µM), without a hit: at the highest dose activation, actives largely listed as activators; actives 0.34% (n = 260,000); purified PKM2, Kinase-Glo ATP luminescence, activation; response scale: 0% is enzyme alone, no compound; AID 1631, 2009; Pyruvate kinase PKM (Homo sapiens), P14618; active = well fitted activation curve with a large enough effect; inconclusive = small, poorly fitted or top-dose-only effect; inactive = no such curve, though single readings can be large or run the other way; also: potency is read from the fitted curve at half-maximal effect; % is scaled to controls: 0 for no effect and ±100 for the full control effect; nearly all actives have a fitted effect of over 55% in size
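Kinase-Glo luminescence reports ATP generated from ADP (0.1 mM) and PEP (0.5 mM) by purified hPK-M2 after 1 h at room temperature, pH 7.2 imidazole buffer; intermediate enzyme activity allows detecting inhibitors and activators.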
Rango complex inh – qHTS Assay for Inhibitors of Rango (Ran-regulated importin-beta cargo) - Importin beta complex formation; Importin subunit beta-1 (Homo sapiens), Q14974; AID 540263, 2011; Rango CFP/YFP FRET sensor + importin beta, 45 min; Potency, µM (highest dose often 92.2 µM), without a hit: at the highest dose inhibition of complex formation; actives 0.031% (n = 340,000);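 also: potency is read from the fitted curve at half-maximal effect; 0% = DMSO wells and 100% = buffer wells lacking importin beta; nearly all actives have a fitted effect of over 15% in size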
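FRET biosensor Rango (snurportin 1 IBB between N-terminal EYFP and C-terminal Cerulean), 50 nM in PBS/1 mM DTT/0.02% Tween-20/0.1% BSA, preincubated 5 min RT with compound; 0.125 microM importin beta added, 45 min RT, CFP/YFP FRET ratio read.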
AT treatment – qHTS Assay for Identifying a Potential Treatment of Ataxia-Telangiectasia | actives 0.19% (n = 320,000) | F2112 A-T fibroblasts, KAP-1 phosphorylation AlphaLISA; neocarzinostatin DNA damage 30 min before lysis | Potency, µM (highest dose often 57.5 µM), for inactives: at the highest dose activation, actives largely listed as activators | AID 485349, 2010; active = well fitted activation curve with a large enough effect; inconclusive = small, poorly fitted or top-dose-only effect; inactive = no such curve, though single readings can be large or run the other way; also: potency is read from the fitted curve at half-maximal effect; % of control where 0% means no effect; nearly all actives have a fitted effect of over 45% in size
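ATM-like activity read as KAP-1 phosphorylation via AlphaLISA donor/acceptor antibody pairs after lysis and 6 hr at 25C. Cells were ATM-null patient fibroblasts (F2112, hTERT), dosed 60 min, then exposed to the DSB inducer NCS for 30 min.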
IL2 activator – qHTS of IL-2 Activators | IL-2 activation reporter assay, cell-based qHTS; stimulated with anti-CD3/CD4/CD28 beads; in transgenic mouse T cells | actives 0.065% (n = 360,000) | activation, % (series mostly up to about 46 µM); in the data active = activation above about 50%; inconclusive = mostly about 30% to 49%; also: 0% is about no effect
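First, unstimulated transgenic mouse T cells were exposed to compound for 60 min. Next, anti-CD3/anti-CD4-coated beads with anti-CD28 were added. Finally, after 18 h at 37 degrees C, EGFP and DsRed were imaged.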
Rango release inh – qHTS Assay for Inhibitors of RanGTP induced Rango (Ran-regulated importin-beta cargo) - Importin beta complex dissociation; Snurportin-1 (Homo sapiens) + GTP-binding nuclear protein Ran (Homo sapiens) + Importin …; Biochemical FRET Rango-importin beta, RanGTP-induced dissociation; Potency, µM (doses to about 46.1 µM), inactives show at the top dose activity change, negative = inhibition; actives 0.071% (n = 340,000); also: potency is read from the fitted curve at half-maximal effect; % of control where 0% means no effect; nearly all actives have a fitted effect of over 45% in size
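Compounds preincubate 5 min with complex of recombinant Rango and importin beta in PBS with 1 mM DTT. Ran (0.6 uM) loaded with 2 mM GTP plus 0.2 uM RCC1 starts dissociation; FRET is recorded 45 min later.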
Starred values were filed as active, the others as inactive; ? = inconclusive; . = not tested or not shown. Rows were chosen to be rich in hits. Some 0.59% of all compounds tested hit in one or more screens of this group. Unless noted, calls follow the shape of the full dose curve.

The chains behind the UniProt entries cited, without tags or fusion partners.
Pyruvate kinase PKM (Homo sapiens), P14618, UniProt P14618, whole entry, looked up: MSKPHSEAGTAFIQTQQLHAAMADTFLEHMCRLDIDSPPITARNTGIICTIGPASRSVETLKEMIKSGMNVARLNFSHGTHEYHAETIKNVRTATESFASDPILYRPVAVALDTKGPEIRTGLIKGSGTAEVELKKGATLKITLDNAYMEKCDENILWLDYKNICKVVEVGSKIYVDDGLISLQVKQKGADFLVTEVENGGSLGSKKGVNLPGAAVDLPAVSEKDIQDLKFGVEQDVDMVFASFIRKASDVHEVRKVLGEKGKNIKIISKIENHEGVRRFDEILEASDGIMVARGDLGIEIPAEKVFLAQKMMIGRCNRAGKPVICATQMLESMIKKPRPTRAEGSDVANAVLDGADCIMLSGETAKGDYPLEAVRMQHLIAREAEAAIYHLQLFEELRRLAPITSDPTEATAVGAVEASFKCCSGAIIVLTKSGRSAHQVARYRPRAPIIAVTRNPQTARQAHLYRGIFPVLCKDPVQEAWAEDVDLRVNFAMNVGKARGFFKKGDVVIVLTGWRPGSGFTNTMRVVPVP
Importin subunit beta-1 (Homo sapiens), Q14974, UniProt Q14974, whole entry, looked up: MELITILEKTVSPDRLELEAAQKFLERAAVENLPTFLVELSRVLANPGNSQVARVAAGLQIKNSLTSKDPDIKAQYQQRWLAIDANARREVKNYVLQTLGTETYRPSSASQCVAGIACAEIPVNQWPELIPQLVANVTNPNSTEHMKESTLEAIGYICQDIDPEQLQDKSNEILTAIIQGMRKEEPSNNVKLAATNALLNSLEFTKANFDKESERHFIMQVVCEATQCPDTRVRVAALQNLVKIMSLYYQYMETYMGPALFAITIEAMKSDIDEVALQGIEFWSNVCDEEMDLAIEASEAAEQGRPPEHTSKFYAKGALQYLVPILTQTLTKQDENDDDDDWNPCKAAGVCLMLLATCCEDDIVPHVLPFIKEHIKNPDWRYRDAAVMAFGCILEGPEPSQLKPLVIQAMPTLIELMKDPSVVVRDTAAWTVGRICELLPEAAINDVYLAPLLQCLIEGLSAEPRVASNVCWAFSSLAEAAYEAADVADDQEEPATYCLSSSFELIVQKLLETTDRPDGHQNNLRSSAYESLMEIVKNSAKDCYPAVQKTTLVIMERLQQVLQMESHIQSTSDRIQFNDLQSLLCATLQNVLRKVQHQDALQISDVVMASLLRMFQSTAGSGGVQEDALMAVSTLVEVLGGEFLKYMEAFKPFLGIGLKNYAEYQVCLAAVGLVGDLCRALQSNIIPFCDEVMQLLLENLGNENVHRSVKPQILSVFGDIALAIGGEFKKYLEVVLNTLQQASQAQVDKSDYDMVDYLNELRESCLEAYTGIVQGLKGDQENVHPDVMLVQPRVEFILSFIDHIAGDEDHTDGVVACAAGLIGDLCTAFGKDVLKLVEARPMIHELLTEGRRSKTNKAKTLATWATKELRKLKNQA

SMILES	PKM2 activator	Rango complex inh	AT treatment	IL2 activator	Rango release inh
COc1ccccc1NC(=O)c1[nH]c(C)c(C(C)=O)c1C	7%	-1%	5%	0	6%
COc1ccccc1NS(=O)(=O)c1cccc(NC(=O)c2[nH]c(C)c(C(C)=O)c2C)c1	13µM*	-4%	18%	-1	-20%
COc1cccc(C=C(C#N)C(=O)c2ccccc2)c1	.	.	.	1	.
N#C/C(=C\c1cccc(Cl)c1)C(=O)c1ccccc1	20µM*	-1%	1%	-2	-10%
O=C(CCN1C(=O)NC2(CCCC2)C1=O)Nc1ccc(-c2nc3ccccc3s2)cc1	.	?	4%	1	-19%
Cc1cc(N/N=C/c2ccc(O)cc2)c2cccc(C)c2n1	-4%	?	3%	-1	?
Cc1cc(C)c2nc(C)cc(N/N=C/c3ccc(O)cc3)c2c1	0%	?	20%	-1	15µM*
COc1ccc(C2C=C(C)Nc3nc(SC)nn32)cc1 (stereo unspecified)	6%	?	.	0	18µM*
CC1=CC(c2ccccc2)n2nc(N)nc2N1 (stereo unspecified)	.	?	.	0	?
O=S(=O)(c1ccc(Br)cc1F)N1CCCCC1CCO (stereo unspecified)	.	4%	.	0	-12%
C=CCn1c(SCc2nc3ccccc3c(=O)[nH]2)nc2scc(C3CC3)c2c1=O	3.5µM*	?	6%	-3	-14%
CCC(C)(C)C1CCC2(CC1)NC(=O)N(CC(=O)N(C)Cc1ccc(OC(F)F)cc1)C2=O (stereo unspecified)	.	-8%	-5%	0	23%
COc1ccc(NC(=O)COC(=O)CN2C(=O)C3CCCCC3C2=O)cc1OC (stereo unspecified)	.	0%	-14%	-1	20%
COc1cccc(-c2csc3nc[nH]c(=O)c23)c1	28µM*	1%	.	1	1%
Cc1cc(C)cc(C(O)c2ncc(-c3ccccc3F)[nH]2)c1 (stereo unspecified)	.	.	.	0	.
Nc1nc(-c2ccccc2)cn1/N=C/c1ccccc1	25%	4%	-23%	0	6%
Nc1nc(-c2ccccc2)cn1N	28µM*	?	0%	0	21µM*
Nc1c(S(=O)(=O)c2ccccc2)c2nc3ccccc3nc2n1Cc1ccco1	?	?	22µM*	-2	?
Nc1c(S(=O)(=O)c2ccccc2)c2nc3ccccc3nc2n1C1CC1	7%	5%	2%	-1	3%
Cn1c(N)c(S(=O)(=O)c2ccc(Br)cc2)c2nc3ccccc3nc21	25µM*	0%	8%	-2	-9%
CO[C@@H]1CN(C)C(=O)c2cc(NC(=O)Nc3cc(F)ccc3F)ccc2OC[C@H](C)N(C(=O)c2cnccn2)C[C@@H]1C	.	.	.	0	.
Cc1c(N=C2Nc3cccc4cccc2c34)c(=O)n(-c2ccccc2)n1C	6%	?	17%	0	2.6µM*
S=C1NC[C@H](c2ccccc2)N1CCCCC1CCCCC1	-3%	2%	35µM*	0	-4%
NC1=NC[C@H](c2ccccc2)N1CCCCC1CCCCC1	0%	4%	3%	-4	-9%
CC(C)NC(=O)C1(C)CSCC(=O)N1Cc1cccc(F)c1 (stereo unspecified)	.	.	.	0	.
CN(C)c1cccc2c(S(=O)(=O)N3CCOCC3)cccc12	2%	?	8%	0	-5%
CN(C)c1cccc2c(S(=O)(=O)N3CCCC3)cccc12	.	0%	20µM*	0	3%
COc1ccccc1NC(=O)N(Cc1ccco1)Cc1cc2ccc(C)c(C)c2[nH]c1=O	16µM*	5%	-6%	-1	0%
Cc1ccc(S(=O)(=O)NNC(=O)c2ccccc2O)cc1	-1%	-1%	-7%	0	5%
Cc1ccc(S(=O)(=O)NNC(=O)c2csnn2)cc1	4%	52µM*	3%	-1	?
COc1ccccc1Cc1c(-c2ccc(F)cc2)nc2ccc(Cl)cn12	.	.	.	0	.
COc1cc2c3nnc(-c4ccccc4)c-3cn(Cc3ccccc3F)c2cc1OC	11%	?	4%	176*	?
COc1cc2c3nnc(-c4ccc(F)cc4)c-3cn(Cc3ccccc3F)c2cc1OC	-9%	?	0%	87*	?
CN(C)c1ccc(NC(=O)CSc2n[nH]c(-c3ccncc3)n2)cc1	.	-1%	.	-2	0%
O=C(CSc1n[nH]c(-c2ccncc2)n1)Nc1ccc(Br)cc1	1%	0%	20µM*	-3	2%
COCCCNC(=S)N1CCN(S(=O)(=O)c2ccc(OC)cc2)CC1	0.89µM*	8%	0%	1	0%
COc1ccccc1CNC(=O)N1CCN(S(=O)(=O)c2ccc(C)cc2)CC1	?	1%	2%	1	44%
COc1ccc(S(=O)(=O)N2CCCN(S(=O)(=O)c3ccc(OC)cc3C)CC2)c(C)c1	8.9µM*	3%	-3%	-2	2%
COc1ccc(S(=O)(=O)N2CCN(C(=S)NCCc3ccccc3)CC2)cc1	0%	-2%	1%	-3	-3%
COc1ccc(S(=O)(=O)N2CCN(C(=O)NCc3ccc(C)cc3)CC2)cc1	7.1µM*	-2%	1%	-2	-5%
COc1cccc(CNC(=O)N2CCN(S(=O)(=O)c3ccc(C)cc3)CC2)c1	11µM*	0%	-3%	-1	35%
O=C(Nc1ccc(F)c(Cl)c1)Nc1nnc([C@@H]2O[C@H](CO)[C@@H](O)[C@H]2O)s1	.	.	.	0	.
O=C1CCCC/C1=N\Nc1ccc(OCc2ccccc2)cc1	-2%	-3%	-2%	2	7%
C[C@@H]1CN([C@@H](C)CO)C(=O)c2cc(Br)cnc2O[C@@H]1CN(C)Cc1cncnc1	.	.	.	-1	.
COc1ccc2c(-c3ccc(S(N)(=O)=O)cc3)c(-c3ccc(S(C)(=O)=O)cc3)sc2c1	.	0%	19%	0	14%
COc1ccc(CNC(=O)N2CCN(S(=O)(=O)c3ccc(C)cc3C)CC2)cc1	4.5µM*	1%	-1%	-3	-11%
COc1cc(C2c3cc4c(cc3C(OC3OC5COC(c6cccs6)OC5C(O)C3O)C3COC(=O)C23)OCO4)cc(OC)c1O (stereo unspecified)	23%	0%	35µM*	-1	-5%
Cc1ccc2cc(CN(CC(C)C)S(=O)(=O)c3cccc4nonc34)c(=O)[nH]c2c1	.	-2%	3%	65*	9%

Source: PubChem
